From patent US9604926B2 (THE UNIVERSITY OF MISSISSIPPI, priority 2007, dated 2017)

Protein sequences, listed by entry. Tags and fused reporters are not part of them. Lines headed by an entry give the natural chain unless they say otherwise; changes in a name come on top.
UniProt Q9R0C9, whole entry: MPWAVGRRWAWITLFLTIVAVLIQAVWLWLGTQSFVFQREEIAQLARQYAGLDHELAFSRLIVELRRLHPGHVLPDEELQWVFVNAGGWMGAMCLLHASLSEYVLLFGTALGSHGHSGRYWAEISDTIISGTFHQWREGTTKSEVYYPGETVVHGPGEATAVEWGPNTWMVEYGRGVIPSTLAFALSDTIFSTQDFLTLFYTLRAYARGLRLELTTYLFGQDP
UniProt Q5U3Y7: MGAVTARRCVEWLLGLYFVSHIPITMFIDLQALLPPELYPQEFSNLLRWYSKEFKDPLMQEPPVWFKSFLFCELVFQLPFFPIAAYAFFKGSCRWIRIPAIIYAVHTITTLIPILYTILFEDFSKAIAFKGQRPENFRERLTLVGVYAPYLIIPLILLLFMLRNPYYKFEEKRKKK

Legend:
σ-1 receptor = σ-1 receptor (Rattus norvegicus (Rat), UniProt Q9R0C9); test: σ-1 receptor binding in rat brain homogenates ([3H](+)-pentazocine)
σ-2 receptor = σ-2 receptor (Rattus norvegicus (Rat), UniProt Q5U3Y7); test: σ-2 receptor binding in rat brain homogenates ([3H]DTG plus (+)-pentazocine); settings: compound listing tables
[1] = read-out: Ki (nm) σ1, compound listing tables
[2] = read-out: Ki (nM) σ1, compound listing tables
[3] = read-out: σ-1 (Ki), rat brain homogenates

Row | Structure (SMILES) | Ki (σ-1 receptor; [2]) [nM] | Ki (σ-2 receptor; read-out: Ki (nM) σ2) [nM] | also measured
1 | CC(CCCn1c(=O)sc2ccccc21)N1CCN(C2CCCCC2)CC1 (centres unmarked) [AZ-57] | – | – | Ki (σ-1 receptor; [1]): 8.73 ± 1.32 nM; Ki (σ-2 receptor; read-out: Ki (nm) σ2): 3.15 ± 0.19 nM
2 | CC(CCCn1c(=O)sc2cc(F)ccc21)N1CCN(C2CCCCC2)CC1 (centres unmarked) [AZ-66] | – | – | Ki (σ-1 receptor; [1]): 0.31 ± 0.09 nM
3 | O=c1sc2cc(F)ccc2n1CCCCN1CCN(C2CCCCC2)CC1 [AZ-68] | – | – | Ki (σ-1 receptor; [1]): 2.01 ± 0.44 nM
4 | Fc1ccc2c(c1)sc(=S)n2CCCCN1CCN(C2CCCCC2)CC1 [AZ-78] | – | – | Ki (σ-1 receptor; [1]): 7.21 ± 1.2 nM; Ki (σ-2 receptor; read-out: Ki (nm) σ2): 0.5 ± 0.3 nM
5 | Fc1ccc2nc(SCCCCN3CCN(C4CCCCC4)CC3)sc2c1 [AZ-81] | – | – | Ki (σ-1 receptor; [1]): 14.3 ± 1.35 nM; Ki (σ-2 receptor; read-out: Ki (nm) σ2): 13.8 ± 1.34 nM
6 | O=C1CSc2cc(F)ccc2N1CCCCN1CCN(C2CCCCC2)CC1 [AZ-87] | – | – | Ki (σ-1 receptor; [1]): 6.24 ± 1.97 nM; Ki (σ-2 receptor; read-out: Ki (nm) σ2): 6.45 ± 0.94 nM
7 | O=c1oc2ccccc2n1CCCN1CCN(C2CCCCC2)CC1 [CM 124] | 5.22 ± 1.11 | – | Ki (σ-1 receptor; [3]): 5.22 ± 1.11 nM
8 | O=c1oc2ccccc2n1CCN1CCN(C2CCCCC2)CC1 [CM 129] | 6.9 ± 0.37 | – | Ki (σ-1 receptor; [3]): 6.9 ± 0.37 nM
9 | c1ccc2oc(SCCCCN3CCN(C4CCCCC4)CC3)nc2c1 [CM 135] | 3.37 ± 0.28 | – | –
10 | O=c1oc2cc(Br)ccc2n1CCCCN1CCN(C2CCCCC2)CC1 [CM 138] | 7.87 ± 0.19 | 4.47 ± 0.42 | –
11 | CC(=O)c1ccc2c(c1)oc(=O)n2CCCCN1CCN(C2CCCCC2)CC1 [CM 142] | 46.4 ± 8.06 | 7.04 ± 0.79 | –
12 | CCc1ccc2c(c1)oc(=O)n2CCCCN1CCN(C2CCCCC2)CC1 [CM 146] | 2.18 ± 0.14 | 2.56 ± 1.22 | –
13 | O=C1CCN(CCCCn2c(=O)oc3ccccc32)CC1 [CM 152] | 19.3 ± 0.9 | – | –
14 | O=c1oc2ccccc2n1CCCCN1CCN(Cc2ccccc2)CC1 [CM 159] | 4.44 ± 0.88 | – | –
15 | CN1CCN(CCCCn2c(=O)oc3ccccc32)CC1 [CM 160] | – | 2380 ± 143 | –
16 | O=c1oc2ccccc2n1CCCCN1CC=C(c2ccc(Cl)cc2)CC1 [CM 165] | 2.4 ± 0.38 | – | –
17 | O=c1oc2ccccc2n1CCCCN1CCN(c2ccc(F)cc2)CC1 [CM 170] | 7.59 ± 0.08 | 0.7 ± 0.11 | –
18 | O=c1oc2ccccc2n1CCCCN1CCN(CC2CCCCC2)CC1 [CM 171] | 0.94 ± 0.13 | – | –
19 | O=c1oc2ccccc2n1CCCCN1CCC(c2ccccc2)CC1 [CM 172] | 0.58 ± 0.22 | – | –
20 | O=c1oc2ccccc2n1CCN1CCN(c2ccc(Cl)cc2)CC1 [CM 179] | 1430 ± 185 | – | –
21 | O=c1oc2ccccc2n1CCN1CCN(CC2CCCCC2)CC1 [CM 181] | 2.36 ± 0.38 | – | –
22 | Fc1ccc(N2CCN(CCCCn3c(=S)sc4ccccc43)CC2)cc1 [CM 307] | 6.27 ± 0.78 | 6.61 ± 1.42 | –
23 | COc1cc2c(cc1OC)CN(CCCCn1c(=S)sc3ccccc31)CC2 [CM 308] | 9.11 ± 1.31 | – | –

Row | Structure (SMILES) | Ki (σ-1 receptor; [2]) [nM] | Ki (σ-2 receptor; read-out: Ki (nM) σ2) [nM] | also measured
24 | O=c1n(CCCCN2CCN(c3ccc(F)cc3)CC2)c2ccccc2n1-c1ccc(F)cc1 [CM 322] | 118 ± 48.4 | – | –
25 | O=c1n(CCCCN2CCN(C3CCCCC3)CC2)c2ccccc2n1-c1ccc(F)cc1 [CM 325] | 5.04 ± 0.66 | 2.12 ± 0.75 | –
26 | COc1cc2c(cc1OC)CN(CCCCn1cc(-c3ccc(F)cc3)c3ccccc31)CC2 [CM 361] | 4710 ± 450 | 4.37 ± 0.33 | –
27 | Cn1c(=O)n(CCCCN2CCN(c3ccc(F)cc3)CC2)c2ccccc21 [CM 397] | 415 ± 26.1 | – | –
28 | Cn1c(=O)n(CCCCN2CCN(c3ccc(F)cc3)CC2)c2cc([N+](=O)[O-])ccc21 [CM 608] | 15.5 ± 1.75 | – | –
29 | Cn1c(=O)n(CCCCN2CCN(c3ccc(F)cc3)CC2)c2cc(N)ccc21 [CM 609] | 23.4 ± 2.63 | – | –
30 | Cn1c(=O)n(CCCCN2CCN(c3ccc(F)cc3)CC2)c2cc(N=C=S)ccc21 [CM 617] | 97.4 ± 6.2 | – | –
31 | Cn1c(=O)n(CCCCN2CCN(c3ccc(F)cc3N=C=S)CC2)c2ccccc21 [CM 621] | 96.5 ± 5.8 | 12.6 ± 1.01 | –
32 | CC(=O)c1ccc(NCCCCN2CCN(c3ccc(F)cc3)CC2)c(O)c1 [CM 623] | 29.4 ± 3.93 | – | –
33 | O=c1oc2ccccc2n1CCCCN1CCN(c2ccc(F)cc2F)CC1 [CM 624] | 14.8 ± 0.71 | – | –
34 | CC(=O)c1ccc2c(c1)oc(=S)n2CCCCN1CCN(c2ccc(F)cc2)CC1 [CM 625] | 10.8 ± 0.78 | – | –
35 | CC(=O)c1ccc2c(c1)OCC(=O)N2CCCCN1CCN(c2ccc(F)cc2)CC1 [CM 627] | 25.5 ± 1.11 | – | –
36 | CC(=O)c1ccc2c(c1)oc(=O)n2CC1CCCC(N2CCN(c3ccc(F)cc3)CC2)C1 (centres unmarked) [CM 657] | 12.7 ± 1.06 | 5.99 ± 0.59 | –
37 | CC(=O)c1ccc2c(c1)oc(=O)n2CCCCN1[C@H](C)CN(c2ccc(F)cc2)C[C@@H]1C [CM 666] | 21.2 ± 2.34 | 14.9 ± 0.52 | –
38 | CCC(=O)c1ccc2c(c1)sc(=O)n2CCN1CCN(C2CCCCC2)CC1 [SC-5] | – | – | Ki (σ-1 receptor; [1]): 6.75 ± 0.6 nM
39 | CCCc1ccc2c(c1)sc(=O)n2CCN1CCN(C2CCCCC2)CC1 [SC-6] | – | – | Ki (σ-1 receptor; [1]): 2.15 ± 0.25 nM; Ki (σ-2 receptor; read-out: Ki (nm) σ2): 2.43 ± 0.09 nM
40 | CCC(=O)c1ccc2c(c1)oc(=O)n2CCN1CCN(C2CCCCC2)CC1 [SC-10] | – | – | Ki (σ-1 receptor; [1]): 14.3 ± 0.34 nM
41 | CCCc1ccc2c(c1)oc(=O)n2CCN1CCN(C2CCCCC2)CC1 [SC-12] | – | – | Ki (σ-1 receptor; [1]): 7.5 ± 0.59 nM
42 | O=c1oc2ccccc2n1CCCCN1CCCCC1 [SN-60] | 12.1 | – | –
43 | O=c1oc2ccccc2n1CCCCCCN1CCN(Cc2ccccc2)CC1 [SN-61] | 4.68 | 107 | –
44 | CCC(=O)c1ccc2oc(=O)n(CCN3CCCCCC3)c2c1 [SN-71] | 115 | – | –
45 | CCCc1ccc2oc(=O)n(CCN3CCCCCC3)c2c1 [SN-72] | – | 1810 | –
46 | O=c1sc2cc(Cc3ccccc3)ccc2n1CCN1CCCCCC1 [SN-81] | 7.42 | 225 | –

Where two headings read alike, the source gives them in different places.
